# Experimental data as given in PubChem BioAssay AID2650 (Broad Institute, 2010).
# The chains behind the UniProt entries cited, without tags or fusion partners.
# UniProt P49840, whole entry: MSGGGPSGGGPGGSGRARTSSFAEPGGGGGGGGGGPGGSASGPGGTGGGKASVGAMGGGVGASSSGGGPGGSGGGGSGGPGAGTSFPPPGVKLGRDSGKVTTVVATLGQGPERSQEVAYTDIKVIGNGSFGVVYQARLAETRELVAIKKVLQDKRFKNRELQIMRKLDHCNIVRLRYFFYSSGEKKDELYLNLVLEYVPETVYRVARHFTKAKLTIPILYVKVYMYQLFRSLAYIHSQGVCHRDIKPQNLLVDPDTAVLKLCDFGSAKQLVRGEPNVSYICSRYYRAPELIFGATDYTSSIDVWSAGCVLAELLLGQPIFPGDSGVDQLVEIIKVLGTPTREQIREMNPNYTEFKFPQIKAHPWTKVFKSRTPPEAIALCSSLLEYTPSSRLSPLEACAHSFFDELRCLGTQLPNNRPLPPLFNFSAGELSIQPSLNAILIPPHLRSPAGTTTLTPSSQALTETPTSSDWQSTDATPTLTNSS
# This is a selection; strong and weak results do not stand in their true shares. Some results for these compounds are left out of this collection, so the calls shown say nothing about other tests. Calls of active or inactive are those of the source.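 How the source made its calls: active means more than half of replicates show inhibition above 20%; inconclusive means some but at most half of replicates above 20% inhibition; inactive means no replicate shows inhibition above 20%.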
# Biological target: Glycogen synthase kinase-3 alpha (Homo sapiens) (UniProt P49840)
# Experiment: blockers of GSK3A enzyme activity – biochemical, luminescence, cell-free homogeneous, HTS, primary screen (AID 2650);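 further: GST-tagged GSK-3 alpha with peptide substrate and 25 µM ATP; 0% = DMSO neutral wells and 100% = GW8510 positive control wells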
# Details: GSK-3 alpha kinase, ADP-Glo luminescence, 60 min; at 10 µM; hits give high values
row,SMILES,inhibition
1,CN1[C@@H]2CC[C@H]1CC(OC(=O)C(O)(c1ccccc1)c1ccccc1)C2 (some centres undefined),inactive: 0.546%
2,O=C(NCC1(N2CCCCC2)CCCCC1)c1cc([N+](=O)[O-])ccc1Cl,inactive: 1.89%
3,Cc1ccc(C(=O)NCC2(N3CCCCC3)CCCCC2)cc1,inactive: -0.737%
4,CCN(CC)CC(C)C(C)OC(=O)C(O)(c1ccccc1)c1ccccc1 (centres undefined),inactive: -2.41%
5,COc1cc(SC)ccc1C(=O)NCC1(N(C)C)CCCCC1,inactive: -2.31%
6,CC(C)N1C(=O)CC2(CCN(CCOC(=O)C(O)(c3ccccc3)c3ccccc3)CC2)C1=O,inactive: -1.21%
7,Cc1ccccc1C(=O)NCC1(N2CCCCC2)CCCCC1,inactive: 1.46%
8,CN(C)c1ccc(C(=O)NCC2(N(C)C)CCCCC2)cc1,inactive: -0.56%
9,CN(C)C1CCCC1OC(=O)C(O)(c1ccccc1)c1ccccc1 (centres undefined),inactive: 0.169%
10,COc1ccc(C(=O)NCC2(N(C)C)CCCCC2)cc1,inactive: -1.9%
11,CCN1CCCC(OC(=O)C2(O)c3ccccc3C=Cc3ccccc32)C1 (centres undefined),inactive: 1.65%
12,Cc1cc(C(=O)NCC2(N3CCCCC3)CCCCC2)ccc1[N+](=O)[O-],inactive: 4.56%
13,O=C(NCC1(N2CCCCC2)CCCCC1)c1cccc(Br)c1,inactive: -1.26%
14,C=CCN1CCN(CCOC(=O)C(O)(c2ccccc2)c2ccccc2)CC1,inactive: -3.14%
15,O=C(NCC1(N2CCCCC2)CCCCC1)c1cc(F)c(F)cc1Cl,inactive: -2.48%
16,COc1cc(C(=O)NCC2(N(C)C)CCCCC2)c([N+](=O)[O-])cc1OC,inactive: 4.27%
17,CN(C)C1(CNC(=O)c2ccc(Br)cc2)CCCCC1,inactive: -3.03%
18,O=C(NCC1(N2CCCCC2)CCCCC1)c1cccc(Cl)c1,inactive: 0.112%
19,COc1cccc(C(=O)NCC2(N3CCCCC3)CCCCC2)c1,inactive: -0.585%
20,COc1ccc(Cl)cc1C(=O)NCC1(N(C)C)CCCCC1,inactive: 1.33%
21,O=C(OC1CN2CCC1CC2)C(CO)(c1ccccc1)c1ccccc1 (centres undefined),inactive: -0.397%
22,CC(C)Oc1ccc(C(=O)NCC2(N(C)C)CCCCC2)cc1,inactive: 0.303%
23,CN(C)c1cccc(C(=O)NCC2(N(C)C)CCCCC2)c1,inactive: -6.09%
24,COc1ccc(Br)c(C(=O)NCC2(N3CCCCC3)CCCCC2)c1,inactive: -2.24%
